Data published in US12497394B2, “Fused-cyclic pyrazolone formamide compound and preparation method therefor, pharmaceutical composition and use thereof” (SHANGHAI INSTITUTE OF MATERIA MEDICA, CHINESE ACADEMY OF …, priority 2018, dated 2025).
Like-named read-outs stand apart in the source and are kept apart here.

Biological target: T1, receptor tyrosine kinase AXL (Homo sapiens, UniProt P30530)
T1 construct: 50 μL of AXL kinase domain recombinant protein diluted in reaction buffer was added to start the reaction; made in house; host or cells: insect cells (baculovirus expression system)
T1 sequence (P30530 536-807 limits assumed): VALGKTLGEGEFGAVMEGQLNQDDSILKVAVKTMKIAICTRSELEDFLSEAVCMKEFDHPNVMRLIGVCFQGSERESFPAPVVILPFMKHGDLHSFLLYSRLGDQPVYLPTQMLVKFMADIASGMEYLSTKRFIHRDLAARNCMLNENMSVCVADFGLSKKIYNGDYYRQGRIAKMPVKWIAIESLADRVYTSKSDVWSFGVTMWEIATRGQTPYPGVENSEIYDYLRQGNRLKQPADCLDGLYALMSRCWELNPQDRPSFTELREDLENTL
Assay: Enzyme activity of receptor tyrosine kinase AXL (ELISA)
Assay type: biochemical
Conditions: for inhibition at 0.001 µM / inhibition at 0.01 µM / inhibition at 0.1 µM / inhibition at 1 µM: read-out: AXL activity Inhibitory rate(%)
Protocol: Detection method: Enzyme-linked immunosorbent assay (ELISA)
Tested receptor tyrosine kinase: AXL
The full-wavelength microplate reader for experiment reading was a product of Molecular Device, model: SpectraMax 190; the experiment water was distilled water produced by Sinopharm Group.
Compound preparation: The compounds were centrifuged at 12,000 g for 5 min, and DMSO was added to prepare a 10^−2M stock solution, vortexed evenly and sonicated for 10 min for use, and stored at −40° C. During the test, the compound was diluted from the stock solution to 100 times the tested concentration with DMSO (the DMSO concentration in the system was 1%).
1. […] Discard the liquid from the well. The plate was washed and washed three times with T-PBS (0.1% Tween-20 in potassium-free PBS, 200 μL/well) for 5 minutes each time. The enzyme plate was dried in 37° C. dryer for 1-2 hours.
2. 49 μL of ATP solution diluted with reaction buffer (50 mM HEPES pH 7.4, 50 mM MgCl2, 0.5 mM MnCl2, 0.2 mM Na3VO4, 1 mM DTT) was added to each well, and […] of the tested compound was added to each well, and then 50 μL of AXL kinase domain recombinant protein diluted in reaction buffer was added to start the reaction. Two control wells without ATP were added in each experiment. (100 rpm) Reacted in 37° C. shaker for 1 hour. Discard the liquid from the well, and the plate was washed with T-PBS for three times.
3. […] Discard the liquid from the well, and the plate was washed with T-PBS for three times.
4. The horseradish peroxidase-labeled goat anti-mouse second antibody dilution (antibody diluted 1:2000 with BSA 5 mg/mL in T-PBS), 100 μL/well, and reacted in 37° C. shaker for 0.5 hours. Discard the liquid from the well, and the plate was washed with T-PBS for three times.
6. The reaction was quenched with 50 μL/well 2M […], and read at 490 nm using a tunable microplate reader VERSAmax.
The IC50 values were obtained by four-parameter regression analysis using the software supplied with the microplate reader.

Row | Compound | inhibition at 0.001 µM | inhibition at 0.01 µM | inhibition at 0.1 µM | IC50 (read-out: AXL activity IC50) | inhibition at 1 µM | IC50
1 | COc1cc2ncnc(Oc3ccc(NC(=O)c4c5n(n(-c6cc(F)ccc6F)c4=O)CCCC5)c(F)c3)c2cc1OC [DC621053, 1-(2,5-difluorophenyl)-N-(4-((6,7-dimethoxyquinazoline-4-yl)oxy)-2-fluorophenyl)-2-oxo-1,2,4,5,6,7-hexahydropyrazolo[1,5-a]pyridine-3-formamide] | 28% | 60% | 89.8% | – | – | –
2 | COc1cc2ncnc(Oc3ccc(NC(=O)c4c5n(n(-c6ccc(F)cc6)c4=O)CCCC5)cc3Cl)c2cc1OC [DC621099, N-(4-((6,7-dimethoxyquinazoline-4-yl)oxy)-3-chlorophenyl)-1-(4-fluorophenyl)-2-oxo-1,2,4,5,6,7-hexahydropyrazolo[1,5-a]pyridine-3-formamide] | 19.2% | 64.4% | 100% | – | – | –
3 | COc1cc2ncnc(Oc3ccc(NC(=O)c4c5n(n(-c6cc(F)ccc6F)c4=O)CCCC5)cc3F)c2cc1OC [DC621023, 1-(2,5-difluorophenyl)-N-(4-((6,7-dimethoxyquinazoline-4-yl)oxy)-3-fluorophenyl)-2-oxo-1,2,4,5,6,7-hexahydropyrazolo[1,5-a]pyridine-3-formamide] | 37.5% | 80.2% | 100% | 5.5 ± 1.6 nM | – | –
4 | COc1cc2ncnc(Oc3ccc(NC(=O)c4c5n(n(-c6ccccc6F)c4=O)CCCC5)cc3Cl)c2cc1OC [DC621089, N-(4-((6,7-dimethoxyquinazoline-4-yl)oxy)-3-chlorophenyl)-1-(2-fluorophenyl)-2-oxo-1,2,4,5,6,7-hexahydropyrazolo[1,5-a]pyridine-3-formamide] | 31.6% | 52.2% | 97.8% | – | – | –
5 | COc1cc2ncnc(Oc3ccc(NC(=O)c4c5n(n(-c6ccccc6F)c4=O)CCCC5)c(F)c3)c2cc1OC [DC621056, N-(4-((6,7-dimethoxyquinazoline-4-yl)oxy)-2-fluorophenyl)-1-(2-fluorophenyl)-2-oxo-1,2,4,5,6,7-hexahydropyrazolo[1,5-a]pyridine-3-formamide] | 24% | 69.4% | 98.8% | – | – | –
6 | COc1cc2ncnc(Oc3ccc(NC(=O)c4c5n(n(-c6cc(F)ccc6F)c4=O)CCCC5)cc3)c2cc1OC [DC621022, 1-(2,5-difluorophenyl)-N-(4-((6,7-dimethoxyquinazoline-4-yl)oxy)phenyl)-2-oxo-1,2,4,5,6,7-hexahydropyrazolo[1,5-a]pyridine-3-formamide] | 13.5% | 66.5% | 100% | 9.1 ± 0.2 nM | – | –
7 | COc1cc2ncnc(Oc3ccc(NC(=O)c4c5n(n(-c6ccc(F)cc6)c4=O)CCCC5)c(F)c3)c2cc1OC [DC621059, N-(4-((6,7-dimethoxyquinazoline-4-yl)oxy)-2-fluorophenyl)-1-(4-fluorophenyl)-2-oxo-1,2,4,5,6,7-hexahydropyrazolo[1,5-a]pyridine-3-formamide] | 32.5% | 61.6% | 94.4% | – | – | –
8 | COc1cc2ncnc(Oc3ccc(NC(=O)c4c5n(n(-c6cc(F)ccc6F)c4=O)CCCC5)cc3Cl)c2cc1OC [DC621079, 1-(2,5-difluorophenyl)-N-(4-((6,7-dimethoxyquinazoline-4-yl)oxy)-3-chlorophenyl)-2-oxo-1,2,4,5,6,7-hexahydropyrazolo[1,5-a]pyridine-3-formamide] | 34.4% | 82.9% | 100% | – | – | –
9 | COc1cc2ncnc(Oc3ccc(NC(=O)c4c5n(n(-c6ccccc6)c4=O)CCCC5)cc3Cl)c2cc1OC [DC621069, N-(4-((6,7-dimethoxyquinazoline-4-yl)oxy)-3-chlorophenyl)-2-oxo-1-phenyl-1,2,4,5,6,7-hexahydropyrazolo[1,5-a]pyridine-3-formamide] | 9.7% | 71.2% | 96% | – | – | –
10 | COc1cc2ncnc(Oc3ccc(NC(=O)c4c5n(n(-c6ccc(F)cc6)c4=O)CCCC5)cc3F)c2cc1OC [DC621043, N-(4-((6,7-dimethoxyquinazoline-4-yl)oxy)-3-fluorophenyl)-1-(4-fluorophenyl)-2-oxo-1,2,4,5,6,7-hexahydropyrazolo[1,5-a]pyridine-3-formamide] | – | 49.1% | 98.5% | 7.8 ± 1.1 nM | 100% | –
11 | COc1cc2nccc(Oc3ccc(NC(=O)c4c5n(n(-c6ccccc6)c4=O)CCCC5)cc3F)c2cc1OC [DC621001, N-(4-((6,7-dimethoxyquinoline-4-yl)oxy)-3-fluorophenyl)-2-oxo-1-phenyl-1,2,4,5,6,7-hexahydropyrazolo[1,5-a]pyridine-3-formamide] | 32.2% | 80% | 100% | 2.5 ± 0.3 nM | – | < 10 nM
12 | COc1cc2ncnc(Oc3ccc(NC(=O)c4c5n(n(-c6ccccc6F)c4=O)CCCC5)cc3F)c2cc1OC [DC621034, N-(4-((6,7-dimethoxyquinazoline-4-yl)oxy)-3-fluorophenyl)-1-(2-fluorophenyl)-2-oxo-1,2,4,5,6,7-hexahydropyrazolo[1,5-a]pyridine-3-formamide] | 14.2% | 70.1% | 89.4% | 9.4 ± 3.2 nM | – | –
13 | COc1cc2ncnc(Oc3ccc(NC(=O)c4c5n(n(-c6ccccc6)c4=O)CCCC5)cc3F)c2cc1OC [DC621011, N-(4-((6,7-dimethoxyquinazoline-4-yl)oxy)-3-fluorophenyl)-2-oxo-1-phenyl-1,2,4,5,6,7-hexahydropyrazolo[1,5-a]pyridine-3-formamide] | 17% | 66.6% | 100% | 8.1 ± 0.2 nM | – | –
14 | COc1cc2ncnc(Oc3ccc(NC(=O)c4c5n(n(-c6ccccc6)c4=O)CCCC5)cc3)c2cc1OC [DC621004, N-(4-((6,7-dimethoxyquinazoline-4-yl)oxy)phenyl)-2-oxo-1-phenyl-1,2,4,5,6,7-hexahydropyrazolo[1,5-a]pyridine-3-formamide] | – | 35.2% | 95.2% | – | 100% | –
